Assays:
[1] = target: T1, GST-full length LSF (LSF1-502) (human, UniProt Q12800 1-502); test: pull-down; as a4, in the presence of 2.5 uM FQI1; settings: both partners purified
T1 construct: Not in the methods' list of GST-LSF fragments; probably made as those (pGEX-5X-1, E. coli); also called LSF full length
T1 sequence (looked up): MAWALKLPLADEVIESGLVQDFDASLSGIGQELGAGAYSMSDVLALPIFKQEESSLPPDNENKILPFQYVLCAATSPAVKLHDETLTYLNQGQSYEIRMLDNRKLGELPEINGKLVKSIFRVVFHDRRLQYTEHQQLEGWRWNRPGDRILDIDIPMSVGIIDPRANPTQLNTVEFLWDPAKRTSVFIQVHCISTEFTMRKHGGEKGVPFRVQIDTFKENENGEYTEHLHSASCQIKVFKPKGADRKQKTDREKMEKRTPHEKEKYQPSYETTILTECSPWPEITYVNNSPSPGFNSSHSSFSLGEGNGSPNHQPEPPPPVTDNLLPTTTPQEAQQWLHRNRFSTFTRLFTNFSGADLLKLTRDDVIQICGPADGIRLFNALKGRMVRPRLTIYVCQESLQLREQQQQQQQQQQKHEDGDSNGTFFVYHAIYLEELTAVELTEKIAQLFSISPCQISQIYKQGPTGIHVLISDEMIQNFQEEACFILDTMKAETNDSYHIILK

[2] = target: T2, GST-LSF (amino acids 380-502), carboxy-terminal domain (human, UniProt Q12800 380-502); test: pull-down; as a4, in the presence of 2.5 uM FQI1; settings: both partners purified
T2 construct: the methods list a fragment 383-503 instead; Cloned into pGEX-5X-1; also called LSF Ubiquitin domain; source: E. coli, captured on Glutathione Sepharose beads
T2 sequence (looked up): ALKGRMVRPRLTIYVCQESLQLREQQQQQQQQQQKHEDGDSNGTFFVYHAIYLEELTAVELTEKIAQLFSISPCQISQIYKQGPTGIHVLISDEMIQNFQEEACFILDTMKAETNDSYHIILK

B1: purified full-length DNMT1 (recombinant, baculovirus expressed) (enzyme, human, UniProt P26358 1-1616, looked up)
chain: MPARTAPARVPTLAVPAISLPDDVRRRLKDLERDSLTEKECVKEKLNLLHEFLQTEIKNQLCDLETKLRKEELSEEGYLAKVKSLLNKDLSLENGAHAYNREVNGRLENGNQARSEARRVGMADANSPPKPLSKPRTPRRSKSDGEAKPEPSPSPRITRKSTRQTTITSHFAKGPAKRKPQEESERAKSDESIKEEDKDQDEKRRRVTSRERVARPLPAEEPERAKSGTRTEKEEERDEKEEKRLRSQTKEPTPKQKLKEEPDREARAGVQADEDEDGDEKDEKKHRSQPKDLAAKRRPEEKEPEKVNPQISDEKDEDEKEEKRRKTTPKEPTEKKMARAKTVMNSKTHPPKCIQCGQYLDDPDLKYGQHPPDAVDEPQMLTNEKLSIFDANESGFESYEALPQHKLTCFSVYCKHGHLCPIDTGLIEKNIELFFSGSAKPIYDDDPSLEGGVNGKNLGPINEWWITGFDGGEKALIGFSTSFAEYILMDPSPEYAPIFGLMQEKIYISKIVVEFLQSNSDSTYEDLINKIETTVPPSGLNLNRFTEDSLLRHAQFVVEQVESYDEAGDSDEQPIFLTPCMRDLIKLAGVTLGQRRAQARRQTIRHSTREKDRGPTKATTTKLVYQIFDTFFAEQIEKDDREDKENAFKRRRCGVCEVCQQPECGKCKACKDMVKFGGSGRSKQACQERRCPNMAMKEADDDEEVDDNIPEMPSPKKMHQGKKKKQNKNRISWVGEAVKTDGKKSYYKKVCIDAETLEVGDCVSVIPDDSSKPLYLARVTALWEDSSNGQMFHAHWFCAGTDTVLGATSDPLELFLVDECEDMQLSYIHSKVKVIYKAPSENWAMEGGMDPESLLEGDDGKTYFYQLWYDQDYARFESPPKTQPTEDNKFKFCVSCARLAEMRQKEIPRVLEQLEDLDSRVLYYSATKNGILYRVGDGVYLPPEAFTFNIKLSSPVKRPRKEPVDEDLYPEHYRKYSDYIKGSNLDAPEPYRIGRIKEIFCPKKSNGRPNETDIKIRVNKFYRPENTHKSTPASYHADINLLYWSDEEAVVDFKAVQGRCTVEYGEDLPECVQVYSMGGPNRFYFLEAYNAKSKSFEDPPNHARSPGNKGKGKGKGKGKPKSQACEPSEPEIEIKLPKLRTLDVFSGCGGLSEGFHQAGISDTLWAIEMWDPAAQAFRLNNPGSTVFTEDCNILLKLVMAGETTNSRGQRLPQKGDVEMLCGGPPCQGFSGMNRFNSRTYSKFKNSLVVSFLSYCDYYRPRFFLLENVRNFVSFKRSMVLKLTLRCLVRMGYQCTFGVLQAGQYGVAQTRRRAIILAAAPGEKLPLFPEPLHVFAPRACQLSVVVDDKKFVSNITRLSSGPFRTITVRDTMSDLPEVRNGASALEISYNGEPQSWFQRQLRGAQYQPILRDHICKDMSALVAARMRHIPLAPGSDWRDLPNIEVRLSDGTMARKLRYTHHDRKNGRSSSGALRGVCSCVEAGKACDPAARQFNTLIPWCLPHTGNRHNHWAGLYGRLEWDGFFSTTVTNPEPMGKQGRVLHPEQHRVVSVRECARSQGFPDTYRLFGNILDKHRQVGNAVPPPLAKAIGLEIKLCMLAKARESASAKIKEEEAAKD
notes: DNMT1, human, full length; source: recombinant baculovirus expressed, purified
Question: B1 was tested. Which “fold reduction of binding with FQI1 against no FQI1” value [1] did it give?
Answer: 2 fold

Question: And the “fold reduction of binding with FQI1 against no FQI1” value [2]?
Answer: 2 fold
